The results in this text go back to PubChem BioAssay AID1851 (National Center for Advancing Translational Sciences (NCATS), 2009).

By UniProt entry, the sequences of proteins in these tests, tags left out.
UniProt P33261, whole entry, looked up: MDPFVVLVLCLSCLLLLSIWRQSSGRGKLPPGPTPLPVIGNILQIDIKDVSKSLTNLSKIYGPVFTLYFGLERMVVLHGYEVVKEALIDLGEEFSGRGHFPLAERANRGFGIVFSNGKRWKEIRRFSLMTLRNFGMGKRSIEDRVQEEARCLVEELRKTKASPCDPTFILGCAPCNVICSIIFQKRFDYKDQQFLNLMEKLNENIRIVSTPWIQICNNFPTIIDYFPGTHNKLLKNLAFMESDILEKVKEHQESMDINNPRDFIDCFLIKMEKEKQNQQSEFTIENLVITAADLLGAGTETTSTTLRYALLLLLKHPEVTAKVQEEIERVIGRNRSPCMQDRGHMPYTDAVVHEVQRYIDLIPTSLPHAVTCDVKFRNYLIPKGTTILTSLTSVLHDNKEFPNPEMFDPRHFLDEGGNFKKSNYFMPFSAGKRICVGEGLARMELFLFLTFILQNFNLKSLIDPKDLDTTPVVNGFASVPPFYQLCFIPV

SMILES strings stand for the structures. Values joined by “and” are separate entries in the source; they are usually repeats but may differ in a detail not shown here. Identical values can stand only once. What follows is the remainder of the data, with few or none of the hits. Results filed as inconclusive are left out. Active and inactive are the calls of the source. The call rests on the fitted dose curve; in most records, active means well fitted curve in the direction sought with a large enough effect; inconclusive means small, poorly fitted or top-dose-only effect, or effect the other way; inactive means no such curve, though single readings can be large or run the other way.

In general, AC50 refers to the concentration at which the activity in the assay is half-maximal.

The assay deals with Cytochrome P450 2C19 (Homo sapiens) (UniProt P33261). The experiment in a line: Cytochrome panel assay with activity outcomes. Particulars: recombinant CYP, pro-luciferin dealkylation, luminescence, p450-cyp2c19; series mostly up to 57.1 µM.
Consider `COCCn1c(=O)c(-c2cccc(C#N)c2)nc2cnc(Nc3ccccc3)nc21`, for which the AC50 entry was “inactive”. The result for `COc1ccccc1CN1CCC2(CC1)CCN(C(=O)c1csnn1)CC2` reads “inactive”; that for `O=C(c1cnccn1)N1CCC2(CCCN(c3ccc(-c4ccccc4)cc3)C2)CC1`, “inactive”.

Consider `O=C(c1csnn1)N1CCC[C@@]2(CCN(c3ncccn3)C2)C1`, for which the AC50 entry was “inactive”. The result for `Cc1nc2cnc(Nc3ccccc3)nc2n(CCC#N)c1=O` reads “inactive”; that for `N#Cc1ccc(CN2CCC3(CC2)CCN(C(=O)c2csnn2)CC3)cc1`, “inactive”; that for `COC(=O)N1CCC2(CC1)CN(c1cccc(-c3ccccc3)c1)C2`, “inactive”. On to `O=C(c1csnn1)N1CCC2(CCCN(Cc3cc(C(F)(F)F)cc(C(F)(F)F)c3)C2)CC1`, for which the AC50 entry is “inactive”. To `O=C(c1csnn1)N1CCC2(CC1)CCN(c1ncccn1)CC2` belongs “inactive”; to `CC(C)NC(=O)N1CCC2(CC1)CCN(C(=O)c1csnn1)CC2`, “inactive”. To `O=C(c1csnn1)N1CCC2(CC1)CCN(C(c1ccccc1)c1ccccc1)CC2` belongs “inactive”. As for `O=C(c1cnccn1)N1CCC[C@@]2(CCN(Cc3nccs3)C2)C1`, the AC50 entry was “inactive”.

On to `COc1ccc(NC(=O)N2CC[C@@]3(CCCN(C(=O)c4csnn4)C3)C2)cc1`, for which the AC50 entry is “inactive”. Regarding `CCN(CC)C(=S)SSC(=S)N(CC)CC`, the AC50 is active: 5.01 µM and active: 794 nM. The result for `COc1cccc(Nc2ncc3ncc(=O)n(CCc4ccccc4)c3n2)c1` reads “inactive”; that for `O=C(c1csnn1)N1CCC[C@@]2(CCN(c3ccncc3)C2)C1`, “inactive”. To `COc1ccc(-n2c(=O)c(-c3cccs3)nc3cnc(Nc4ccccc4)nc32)cc1` belongs “inactive”; to `O=C(c1cnccn1)N1CCC[C@@]2(CCN(c3ccccc3)C2)C1`, “inactive”; to `COCCn1c(=O)c(-c2ccc(F)cc2)nc2cnc(Nc3cccc(OC)c3)nc21`, “inactive”. The result for `COc1cccc(Nc2ncc3nc(C)c(=O)n(C)c3n2)c1` reads “inactive”. With `Cc1nc2cnc(Nc3ccccc3)nc2n(C2CC2)c1=O`, the AC50 entry was “inactive”. `CC(C)CN1CC[C@@]2(CCCN(C(=O)c3cnccn3)C2)C1`: the AC50 entry is “inactive”.
